Experimental data reported in patent US10421747B2, “Quinoxaline derivatives useful as FGFR kinase modulators” (ASTEX THERAPEUTICS LTD, priority 2014, dated 2019).

Columns and labels:
[1] = system: Ba/F3-FGFR4-transfected cells; assay: cells; conditions: read-out: BAF3-FGFR4 (pIC50) (converted)
[2] = system: Ba/F3-KDR-transfected cells; assay: cells; conditions: read-out: BAF3-KDR (MIN IL3 pIC50) (converted)

Work on `COc1cc(OC)c2c(c1)N(c1ccc3ncc(-c4cnn(C)c4)nc3c1)CCN(C(C)C)C2` [Compound 1] yielded an IC50 [1] of 10 µM and an IC50 [2] greater than 10 µM.
